In this experiment the target is Protease (Human immunodeficiency virus 1, UniProt Q9YQ12). Put plainly: Inhibition of HIV1 protease expressed in Escherichia coli.

`CC(C)(C)NC(=O)[C@@H]1CN(Cc2cccnc2)CCN1C[C@@H](O)C[C@@H](Cc1ccccc1)C(=O)N[C@H]1c2ccccc2C[C@H]1O` yielded a Ki of 0.52 nM.
